The Ki is a dissociation constant, usually derived from enzyme kinetics or from competition with a known ligand.

For the experiment, the target named is bovine thrombin (Bos taurus, UniProt P00735). The experiment in a line: Thrombin inhibition assay (chromogenic substrate S-2238). The format is biochemical. The note with it: Cheng-Prousoff from IC50; mean of three measurements; read-out: Enzyme Inhibition, Ki, Thrombin.

Consider `CC(C)N1CCC(C(=O)Nc2ccccc2OCc2cc(-c3ccc(Cl)s3)on2)CC1` [Compound 2], for which the Ki is 11 µM.

The record behind these values is publication PMC9415951 (Viruses, 2022).
